# From PubChem
# Sfp PPTase inh: blocks B. subtilis Sfp PPTase activity; 310,000 compounds, 3.5% hits; AID 1490; Potency, µM, most hits filed as inhibitors; Biochemical Sfp PPTase activity, qHTS; Q9F4F7;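 further: the enzyme is Sfp with the accession as filed and its product quenches rhodamine fluorescence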
#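 Step 1, compound plus 15 nM Sfp-PPTase, 15 min, room temperature. Step 2, add rhodamine-CoA (5 uM) and BHQ-2-YbbR (12.5 uM). Step 3, read 525/598 nm fluorescence at 0 and 30 min.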
# JMJD2E inh: inhibitors of human JMJD2E histone demethylase; Potency, µM (highest dose often 57.1 µM), hits mostly inhibitors; JMJD2E catalytic domain, FDH-coupled NADH fluorescence (FDH is formaldehyde dehydrogenase); B2RXH2; 230,000 compounds, 1.6% hits; active means well fitted inhibition curve with a large enough effect, not every such curve was filed as active; inconclusive means small, poorly fitted or top-dose-only effect, or another doubt; inactive means no such curve, though single readings can be large or run the other way; further: nearly all actives have a fitted effect of over 50% in size
# ALDH1A1 block: ALDH1A1 (human) enzyme inhibition; Purified ALDH1A1, NADH fluorescence, propionaldehyde substrate; Potency, µM (highest dose often 75.3 µM), most hits filed as inhibitors; 220,000 compounds, 7.3% hits; AID 1030; active means well fitted inhibition curve with a large enough effect, not every such curve was filed as active; inconclusive means small, poorly fitted or top-dose-only effect, or another doubt; inactive means no such curve, though single readings can be large or run the other way
# miR-21 reporter: raises the signal of a miR-21 reporter | HeLa miR-21 FLuc reporter, luciferase, 48 h | Potency, µM (highest dose often 38.3 µM) | 340,000 tested, under 10 active | AID 2288; active = well fitted rising curve with a large enough effect; inconclusive = small, poorly fitted or top-dose-only effect; inactive = no such curve, though single readings can be large or run the other way;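 note: miR-21 action dims this reporter so a rising signal means less miR-21 action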
#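 Luminescence from a firefly luciferase reporter carrying a miR-21 binding site downstream, stably expressed under a CMV promoter in HeLa cells that make miR-21 endogenously, reports miRNA modulation after 48 h compound exposure up to approximately 40uM final.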
# G9a inh: blocks human histone lysine methyltransferase G9a | G9a H3K9 monomethylation, AlphaScreen, 2 h | Q96KQ7 | 350,000 compounds, 8.8% hits | Potency, µM (highest dose often 102 µM), usual class: inhibitors; further: nearly all actives have a fitted effect of over 75% in size
#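 Compounds were preincubated with 20 nM G9a for 15 min, after which biotinylated H3K9 peptide (500 nM) and SAM (20 uM) started a 2 h room-temperature reaction. Monomethylated product was quantified by antibody-based AlphaScreen chemiluminescence.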
# Lamin A splicing: modulators of lamin A splicing; Potency, µM (titrated, usually from 46.1 µM), usual class: inhibitors; HeLa LMNA splicing GFP/RFP minigene ratio, 48 h; 200,000 compounds, 0.01% hits; AID 1487; active means well fitted inhibition curve with a large enough effect in the signal ratio, with a control signal flat, not every such curve was filed as active; inconclusive means small, poorly fitted or top-dose-only effect, or effect the other way, or a change in a side signal; the % refers to the signal ratio
#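 Read-out is the ratio of GFP to DsRed2 object intensity, acquired by 488 nm laser-scanning cytometry on HeLa lamin A-EGFP minigene reporter cells. Compound incubation 48 hrs at 37 °C in Opti-MEM with 2% FBS; DMSO 0.5% final.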
# A number is an active result; i = inactive; ? = inconclusive; nt = no result; [ ] = dose if it differs, or a comment. Sampled rows, rich in hits. Any-hit rate of the full collection: about 13%. Unless noted, the call rests on the fitted dose curve; in most records, active means well fitted curve in the direction sought with a large enough effect; inconclusive means small, poorly fitted or top-dose-only effect, or another doubt; inactive means no such curve, though single readings can be large; an effect the other way counts as inactive or inconclusive.
SMILES,Sfp PPTase inh,JMJD2E inh,ALDH1A1 block,miR-21 reporter,G9a inh,Lamin A splicing
CCc1nnc(NC(=O)CSc2nnc3nc(C)cc(C)n23)s1,i,nt,nt,i,i,nt
COc1ccc(NC(=O)c2ccc3c(c2)NC(=O)CS3)cc1S(=O)(=O)Nc1ccc(Br)cc1,17.8µM,?,10µM,?,nt,?
Cc1ccc(NS(=O)(=O)c2cc(NC(=O)c3ccc4c(c3)NC(=O)CS4)ccc2C)c(C)c1,10µM,?,14.1µM,?,7.94µM,?
Cc1ccc(NS(=O)(=O)c2cc(C(=O)Nc3cccc(N(C)S(C)(=O)=O)c3)ccc2C)c(C)c1,i,i,i,i,i,?
Cc1cc(Br)c(OCc2ccc(C(=O)N/N=C3\CC4CC=CC34)cc2)c(Br)c1 (stereo unspecified),i,?,8.91µM,i,i,?
Clc1ccc(-n2cc(-c3ccc(Br)cc3)[n+]3c2CCCCC3)cc1,i,i,nt,i,i[12.7 µM],nt
CC(C)(C)c1cn(-c2ccc(Cl)cc2)c(=S)[nH]1,i,i,i,i,2µM,i
CCOc1ccccc1NC(=O)c1ccc(S(=O)(=O)N(C)C)cc1,i,i,14.1µM,i,i,i
CCOc1ccccc1NC(=O)c1ccc(S(=O)(=O)N(C)c2ccccc2)cc1,nt,nt,nt,nt,i[2.33 µM],nt
COc1ccc(C(c2c[nH]c3ccccc23)c2c[nH]c3ccccc23)cc1O,i,i,i,i,44.7µM,i
COc1ccc(C(=O)NCCSc2c[nH]c3ccccc23)cc1OC,nt,nt,nt,i,i,nt
C=C1CCN(C(Cc2ccccc2)C(=O)NCc2ccccc2)S(=O)(=O)c2ccccc21 (stereo unspecified),i,nt,nt,nt,nt,nt
CCn1nc(NC(=O)c2ccco2)c2cc3ccccc3nc21,i,?,?,i,7.94µM,i
CCn1nc(NS(=O)(=O)c2ccc([N+](=O)[O-])cc2)c2cc3ccccc3nc21,i,nt,nt,i,44.7µM,nt
CCCn1nc(NC(=O)c2ccco2)c2cc3cc(C)ccc3nc21,?,?,nt,i,22.4µM,nt
O=C(Cn1cc(C(F)(F)F)cc(Cl)c1=O)NC1CCS(=O)(=O)C1 (stereo unspecified),nt,nt,nt,nt,i[12.7 µM],nt
CC(C)Oc1ccc(CN2CCC(n3nccc3NC(=O)C3CC3)CC2)cc1,i,nt,nt,i,i,nt
CSCCC(NC(=O)COc1ccccc1)C(=O)OC(C)C(=O)Nc1ccccc1C (stereo unspecified),nt,nt,nt,nt,i,nt
CCCC(=O)Nc1ccc(Cc2ccc(NC(=O)CCC)c(C(=O)O)c2)cc1C(=O)O,i,?,i,i,?,i
COc1ccc(-c2cc(C(F)(F)F)nc(S(=O)(=O)CCCC(=O)Nc3cc(C)on3)n2)cc1OC,i,?,i,?,i,3.98µM
COc1ccccc1-c1cc(C(F)(F)F)nc(S(=O)(=O)CCCC(=O)Nc2cc(C)on2)n1,i,?,?,i,i,i
Cc1ccc(SCc2[nH]nc3c2C(c2ccc(C)o2)C(C#N)=C(N)O3)cc1 (stereo unspecified),?,?,?,i,?,?
Cc1ccc(-n2nc(C)c3c2OC(N)=C(C#N)C3c2ccoc2)cc1 (stereo unspecified),?,10µM,0.891µM,i,?,i
Cc1ccc(-n2nc(C)c3c2OC(N)=C(C#N)C3c2ccc(C)o2)cc1 (stereo unspecified),?,25.1µM,1.58µM,i,8.91µM,i
Cc1ccc(-c2[nH]nc3c2C(c2ccoc2)C(C#N)=C(N)O3)cc1C (stereo unspecified),i,?,i,i,?,i
SMILES,Sfp PPTase inh,JMJD2E inh,ALDH1A1 block,miR-21 reporter,G9a inh,Lamin A splicing
Cc1ccc(-n2nc(C)c3c2OC(N)=C(C#N)C3c2ccco2)cc1 (stereo unspecified),i,i,1.58µM,i,?,i
CC(C)CNC(=O)NC(=O)COC(=O)Cn1cnc2ccccc2c1=O,i,i,i,i,?,nt
Cc1ccc(-c2cccc(CN3CCN(C(C)C)C(CCO)C3)c2)o1 (stereo unspecified),i,?,?,i,44.7µM,i
O=S(=O)(c1ccc(Cl)cc1)c1nc(-c2ccccc2Br)oc1N1CCOCC1,nt,nt,nt,i,i,nt
COc1cc(-c2nc(S(=O)(=O)c3ccc(Cl)cc3)c(N3CCOCC3)o2)cc(OC)c1OC,i,i,1µM,i,i[12.7 µM],i
COc1ccccc1-c1nc(S(=O)(=O)c2ccccc2)c(N2CCOCC2)o1,i,nt,nt,i,i,nt
COc1cc(-c2nc(S(=O)(=O)c3ccc(C)cc3)c(N3CCOCC3)o2)cc(OC)c1OC,?,i,1.12µM,i,?,i
O=C(NCc1ccncc1)c1cn(-c2ccccc2)nc1-c1cccnc1,i,i,i,i,i,i
O=C(O)CC/C(=N/NC(=O)c1cn(-c2ccccc2)nc1-c1ccccc1)C(=O)O,i,i,4.47µM,i,35.5µM,i
COC(=O)c1cn(-c2ccccc2)nc1-c1ccncc1,i,i,?,i,i,i
O=C(OCc1ccccc1)c1cn(-c2ccccc2)nc1-c1ccncc1,89.1µM,i,20µM,i,i,i
O=C(NCc1cccnc1)c1cn(-c2ccccc2)nc1-c1ccccc1,i,i,4.47µM,i,i,i
O=C(Nc1ccccc1)c1cn(-c2ccccc2)nc1-c1ccccc1,nt,nt,nt,i,i,nt
CC(=O)Nc1c(C)nn(-c2ccccc2)c1N1CCC(C(=O)Nc2ccccc2F)CC1,nt,nt,nt,i,i,?
Cc1ccc(-n2nc(C(=O)N3CCN(c4cc(Cl)ccc4C)CC3)c(=O)n(C)c2=O)cc1,nt,nt,nt,i,i,i
CC(/C=C/c1ccccc1)=N\NC(=S)NC(C)C,i,i,i,i,50.1µM,nt
CC1(C)CC(=O)C2=C(C1)NC1=C(C(=O)c3ccccc31)C2c1ccc(Cl)cc1 (stereo unspecified),i,i,i,?,?,?
COc1cc(C2C3=C(CC(C)(C)CC3=O)NC3=C2C(=O)c2ccccc23)ccc1O (stereo unspecified),i,i,?,i,44.7µM,nt
Cc1ccc(C2C3=C(CC(C)(C)CC3=O)NC3=C2C(=O)c2ccccc23)cc1 (stereo unspecified),i,i,i,i,14.1µM,?
Cc1cccc(-n2c(SCc3ccc([N+](=O)[O-])cc3)nnc2-c2c[nH]c3ccccc23)c1,i,i,i,i,44.7µM,i
COc1cccc(-n2c(SC)nnc2-c2c[nH]c3ccccc23)c1,i,i,i,i,?,i
CCN(CC)c1nc(Nc2ccc(Cl)cc2)nc(OCC#N)n1,i,i,i,i,i,i
CCN(CC)c1ccc(Nc2nc(Cl)ncc2Br)cc1,i,nt,nt,i,10µM,nt
O=C(O)c1ccc(-n2ncc3c2/C(=C/c2cccc([N+](=O)[O-])c2)CC3)cc1,i,i,nt,i,i[12.7 µM],nt
O=C(O)c1ccccc1-n1ncc2c1/C(=C/c1ccc(Cl)cc1)CC2,i,?,22.4µM,i,i,nt
